Experimental findings from paper PMC4494942, “Sorafenib and DE605, a novel c-Met inhibitor, synergistically suppress hepatocellular carcinoma” (Oncotarget, 2015) are described below.

The chains behind the UniProt entries cited, without tags or fusion partners. Residues count along the entry.
UniProt P08581, 25-1390 limits assumed: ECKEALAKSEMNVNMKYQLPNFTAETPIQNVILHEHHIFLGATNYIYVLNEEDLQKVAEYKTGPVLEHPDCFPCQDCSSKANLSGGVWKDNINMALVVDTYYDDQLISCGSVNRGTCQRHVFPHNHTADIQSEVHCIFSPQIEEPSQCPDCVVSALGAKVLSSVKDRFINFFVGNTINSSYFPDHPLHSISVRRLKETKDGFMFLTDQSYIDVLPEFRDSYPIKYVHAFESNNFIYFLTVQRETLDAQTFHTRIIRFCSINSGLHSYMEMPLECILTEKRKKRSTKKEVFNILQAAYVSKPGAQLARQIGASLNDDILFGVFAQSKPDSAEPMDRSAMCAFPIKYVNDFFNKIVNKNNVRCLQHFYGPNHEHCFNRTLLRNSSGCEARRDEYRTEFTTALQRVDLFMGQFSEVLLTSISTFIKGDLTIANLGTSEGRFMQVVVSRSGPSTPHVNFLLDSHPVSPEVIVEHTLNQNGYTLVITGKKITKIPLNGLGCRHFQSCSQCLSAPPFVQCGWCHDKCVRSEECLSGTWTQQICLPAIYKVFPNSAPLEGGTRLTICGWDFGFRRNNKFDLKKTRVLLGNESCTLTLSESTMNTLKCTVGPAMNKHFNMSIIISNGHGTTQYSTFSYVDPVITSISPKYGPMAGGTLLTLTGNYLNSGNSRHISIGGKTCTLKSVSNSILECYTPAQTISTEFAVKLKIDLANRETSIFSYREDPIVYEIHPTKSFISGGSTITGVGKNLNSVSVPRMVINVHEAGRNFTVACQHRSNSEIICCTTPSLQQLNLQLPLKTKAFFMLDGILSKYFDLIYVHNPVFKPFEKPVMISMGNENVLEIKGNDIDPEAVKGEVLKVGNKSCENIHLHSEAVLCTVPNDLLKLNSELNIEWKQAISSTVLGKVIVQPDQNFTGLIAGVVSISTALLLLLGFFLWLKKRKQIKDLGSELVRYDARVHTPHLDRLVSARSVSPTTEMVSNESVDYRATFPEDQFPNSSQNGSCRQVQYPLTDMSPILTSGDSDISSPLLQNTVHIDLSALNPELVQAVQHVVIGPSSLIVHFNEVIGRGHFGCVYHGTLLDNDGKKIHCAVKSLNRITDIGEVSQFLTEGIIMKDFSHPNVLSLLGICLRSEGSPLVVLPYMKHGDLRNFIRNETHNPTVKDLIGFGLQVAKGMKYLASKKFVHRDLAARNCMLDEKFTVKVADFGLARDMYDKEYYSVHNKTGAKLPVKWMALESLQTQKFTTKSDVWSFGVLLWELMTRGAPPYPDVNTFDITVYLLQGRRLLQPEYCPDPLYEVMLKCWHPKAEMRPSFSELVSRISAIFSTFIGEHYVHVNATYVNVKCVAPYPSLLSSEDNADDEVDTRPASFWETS
UniProt P08581, 1078-1345 limits assumed: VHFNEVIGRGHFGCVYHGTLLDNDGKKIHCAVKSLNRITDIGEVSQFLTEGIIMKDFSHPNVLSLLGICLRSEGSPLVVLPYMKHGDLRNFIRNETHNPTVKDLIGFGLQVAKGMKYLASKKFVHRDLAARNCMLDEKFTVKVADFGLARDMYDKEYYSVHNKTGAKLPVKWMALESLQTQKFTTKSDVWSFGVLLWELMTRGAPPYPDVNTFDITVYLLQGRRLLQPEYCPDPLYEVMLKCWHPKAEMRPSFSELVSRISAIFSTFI

The target in data set [1] is recombinant human c-Met kinase domain (Homo sapiens, UniProt P08581). As to the kind of experiment: c-Met in vitro kinase flash-plate assay. Conditions: read-out: c-Met kinase activity average IC50, biotinylated peptide substrate. How it is done:
(§1) DE605 was synthesized to specifically interact with c-Met and inhibit its kinase activity. The biochemical activity of this compound was measured in a flash-plate assay using recombinant human c-Met kinase domain and a biotinylated peptide substrate. Under these conditions, DE605 inhibited c-Met kinase activity with an average IC50 of 12.3 nM. To assess the selectivity of DE605 for c-Met kinase activity, this compound was profiled against a protein kinase panel of 242 human kinases.
(§2) Kinase inhibition by DE605 was assessed in vitro using a panel of 242 different kinases. Biochemical activity was measured in a flash-plate assay. His6-tagged recombinant human c-Met kinase domain (Aa 974–end; 20 ng) and biotinylated poly-Ala-Glu-Lys-Tyr (6:2:5:1; 500 ng) were incubated with or without the test compound for 90 minutes at room temperature in 100 μl buffer containing 0.3 μCi ^33P-ATP, 2.5 μg polyethylene glycol 20.000, and 1% dimethyl sulfoxide (DMSO), as previously described. Radioactivity was measured with a TopCount microplate scintillation and luminescence counter (Packard BioScience BV). Inhibitory 50% concentration values (IC50) were calculated by nonlinear regression analysis using the RS/1 software program.

A further data set has as its system other 241 human kinases. As to the kind of experiment: protein kinase selectivity panel of 242 human kinases. The note with it: at 15.6 μM DE605; none inhibited by more than 50%. How it is done: as §1, §2
Data set [2] addresses c-Met phosphorylation in PLC/PRF/5 cells (Homo sapiens, UniProt P08581). As to the kind of experiment: phospho-c-Met capture ELISA, HGF-stimulated PLC/PRF/5 cells. How it is done:
(§3) We next investigated whether DE605 could inhibit c-Met phosphorylation induced in liver cancer cells by different mechanisms. To this end, we used the PLC/PRF/5 and Hep3B hepatocellular carcinoma cell lines, in which c-Met phosphorylation is respectively triggered by HGF binding or by c-Met gene amplification and ligand-independent activation. […] Moreover, we defined the efficiency of the cellular uptake and retention of DE605. A series of wash-out studies was conducted, in which PLC/PRF/5 and Hep3B cells were incubated for 30 to 45 minutes in the presence of different concentrations of DE605, washed, stimulated with HGF, and subsequently assessed for c-Met phosphorylation. […]
(§4) Figure 1 Effects of DE605 on c-Met phosphorylation, cell viability and epigenetic markers (A-B) PLC/PRF/5 (A) and Hep3B (B) hepatocellular carcinoma cells are characterized by c-Met expression and ligand dependence. […] Upon HGF stimulation, inhibition of total c-Met phosphorylation by DE605 was assessed by c-Met capture ELISA using a pan-phospho-Tyr antibody. The levels of total phospho-c-Met were also assessed after wash-out of the inhibitors, as described in the Materials and Methods section. […] The cells were treated with different concentrations of the indicated agents for 72 hours, and cell viability was measured by MTT assay. […]
A general note: An ELISA detects its analyte on a solid surface through an enzyme-linked reagent.

Data set [3] has as its target c-Met phosphorylation in Hep3B cells (Homo sapiens, UniProt P08581). The data set can be described thus: phospho-c-Met capture ELISA, HGF-stimulated Hep3B cells. On the procedure: We next investigated whether DE605 could inhibit c-Met phosphorylation induced in liver cancer cells by different mechanisms. To this end, we used the PLC/PRF/5 and Hep3B hepatocellular carcinoma cell lines, in which c-Met phosphorylation is respectively triggered by HGF binding or by c-Met gene amplification and ligand-independent activation. […] Moreover, we defined the efficiency of the cellular uptake and retention of DE605. A series of wash-out studies was conducted, in which PLC/PRF/5 and Hep3B cells were incubated for 30 to 45 minutes in the presence of different concentrations of DE605, washed, stimulated with HGF, and subsequently assessed for c-Met phosphorylation. Our findings indicate that c-Met phosphorylation was inhibited upon exposure to DE605 and lasted for more than 20 hours in PLC/PRF/5 and Hep3B cells, with an average IC50 of 5.4 and 7.2 nM, respectively. […] Higher serum concentrations could not be used in this test, as they suppressed the HGF-induced c-Met phosphorylation, probably because of HGF binding to serum proteins or HGF inactivation by serum proteases.
Figure 1 Effects of DE605 on c-Met phosphorylation, cell viability and epigenetic markers (A-B) PLC/PRF/5 (A) and Hep3B (B) hepatocellular carcinoma cells are characterized by c-Met expression and ligand dependence. In vitro PLC/PRF/5 and Hep3B culture was carried out under serum-free conditions or in the presence of 10% human or mouse serum. Upon HGF stimulation, inhibition of total c-Met phosphorylation by DE605 was assessed by c-Met capture ELISA using a pan-phospho-Tyr antibody. The levels of total phospho-c-Met were also assessed after wash-out of the inhibitors, as described in the Materials and Methods section. […] The cells were treated with different concentrations of the indicated agents for 72 hours, and cell viability was measured by MTT assay. Each value represents the mean ± SD (n = 3). […]
Total c-Met phosphorylation was assessed by c-Met–capture ELISA in Nunc-Immuno MicroWell 96-well solid plates (Sigma-Aldrich) as previously described. […]

Data set [4] deals with HGF-induced c-Met phosphorylation (Homo sapiens, UniProt P08581). The data set can be described thus: phospho-c-Met capture ELISA in presence of 10% serum (cell line not specified). Conditions: read-out: inhibition of HGF-induced c-Met phosphorylation, average IC50. How it is done:
as §3, §4

Data set [5] relates to PLC/PRF/5 cells. The data set can be described thus: MTT cell viability assay, PLC/PRF/5. Conditions: PLC/PRF/5, 72 h.
For the next data set, the system named is HepG2 cells. As to the kind of experiment: MTT cell viability assay, HepG2. Conditions: read-out: cell viability IC50, HepG2, 72 h. On the technique in general: Formazan colour is commonly taken as a measure of viable cells.
Another data set deals with HuH7 cells. As to the kind of experiment: MTT cell viability assay, HuH7. The note with it: read-out: cell viability IC50, HuH7, 72 h.
The subject of data set [6] is HL-7702 normal liver cells. As to the kind of experiment: MTT cell viability assay, normal liver cells. Conditions: HL-7702, 72 h. How it is done:
Supplemental Figure S2: Effects of DE605 on cell viability in normal liver cells and effects of sorafenib in combination with tivantinib on cell viability in hepatocellular carcinoma cells. […]
sorafenib for 72 hours, and cell viability was measured by MTT assay. (B) PLC/PRF/5 cells were treated with various concentrations of sorafenib in combination with tivantinib (ARQ 197) for 72 hours, and cell viability was measured by MTT assay (left). The combination index (CI) values were calculated by CompuSyn software (right). CI values <1 represent synergism, and the numbers reflect the corresponding data points (left). Each value represents the mean ± SD (n = 3).
(1 picture or pasted object on this page, not shown here)

For data set [7], the system named is PLC/PRF/5 cells. The data set can be described thus: cell-cycle distribution by flow cytometry. The note with it: PLC/PRF/5, 72 h, single agent. How it is done:
As sorafenib and c-Met inhibitors reportedly induce apoptosis in cancer cells, we examined the impact of our drug combination on programmed cell death. First, the effect of co-administration of DE605 and sorafenib on cell-cycle distribution was analyzed by flow cytometric analysis.
Figure 3 Effects of sorafenib in combination with DE605 on cell-cycle progression in PLC/PRF/5 cells (A) PLC/PRF/5 cells were treated with the indicated drugs for 72 hours, and cell-cycle distribution was analyzed by flow cytometry. (B) Statistical analysis of sub-G1 phase in PLC/PRF/5 cells exposed to DMSO, sorafenib alone, DE605 alone, or in sorafenib/DE605 combination. Data, mean ± SD (n = 3).
After drug treatment, the cells were harvested by trypsinization, washed with PBS, then pellets were resuspended and fixed in ethanol (70%, v/v) at −20°C overnight, and washed once with PBS. After centrifugation, the cells were incubated for 15 minutes at room temperature in 0.1 ml of phosphate-citric acid buffer. Cells were stained with propidium iodide staining buffer containing Triton X-100 (0.1%, v/v), RNase A (100 μg/ml), and propidium iodide (80 μg/ml) for 30 minutes in the dark. Cell-cycle distribution was analyzed by flow cytometry with CellQuest software (Becton Dickinson).
A general note: A flow cytometer gives signals particle by particle.

Data set [8] deals with PLC/PRF/5 cells. As to the kind of experiment: nucleosome formation (Cell Death ELISA). Conditions: PLC/PRF/5, 72 h, DE605 1 μM added to sorafenib 4 μM. How it is done: Meanwhile, the possibility of necrotic effect was excluded by examining LDH leakage in the supernatants of drug-treated PLC/PRF/5 cells (Fig. 4A). To confirm this effect, nucleosome formation (representing DNA fragmentation) was determined in drug-treated cells.
Figure 4 Effect of sorafenib plus DE605 on LDH activity, nucleosome formation and the apoptosis-related proteins in PLC/PRF/5 cells (A) PLC/PRF/5 cells were exposed to indicated drugs for 72 hours. LDH acticity in cell supernatants or lysates was analyzed by the CytoTox 96® Non-Radioactive Cytotoxicity Assay (Promega, Madison, WI) according to manufacturer's protocol. […] Nucleosome formation was measured using the Cell Death ELISA Kit (Roche Applied Science). Data, mean ± SD (n = 3; **, P < 0.01 compared with the control group). (C) Cells were treated with various concentrations of sorafenib in combination with DE605 for 72 hours. (D) Cells were exposed to sorafenib (Sor, 4 μM) in combination with DE605 (1 μM) in the presence or absence of zVAD–FMK for 72 hours. Whole-cell lysates were collected and subjected to Western blot analysis with the indicated antibodies.

Data set [9] concerns phosphorylated-Erk in PLC/PRF/5 cells. The data set can be described thus: western blotting of p-Erk. It counts as cell-based, human. The note with it: PLC/PRF/5, DE605 alone.
For data set [10], the system named is FGFR3 mRNA in PLC/PRF/5 cells. The data set can be described thus: FGFR3 mRNA by RT-PCR, PLC/PRF/5. It counts as cell-based, human. Conditions: PLC/PRF/5, DE605 1.0 μM, 72 h.
Data set [11] deals with FGFR3 mRNA in Hep3B cells. The data set can be described thus: FGFR3 mRNA by RT-PCR, Hep3B. It counts as cell-based, human. Conditions: 72 h.
A further data set relates to Hep3B cells. The data set can be described thus: MTT cell viability assay, Hep3B. The note with it: read-out: cell viability IC50, 72 h.
The test system of data set [12] is PLC/PRF/5 tumor xenografts. The data set can be described thus: PLC/PRF/5 tumor xenograft model. The note with it: oral, qd, 28 days; sorafenib 60 mg/kg, DE605 80 mg/kg; versus control group.

Read-outs that look alike come from different tables or passages of the source.

As usually defined, the IC50 is the midpoint of a concentration-inhibition curve. With `CC(=O)N1CCC(n2cc(-c3cnc(N)c(-c4nc5ccccc5o4)c3)cn2)CC1`, the IC50 in data set [1] was determined as 12.3 nM; in data set [2] (read-out: c-Met phosphorylation after wash-out, average IC50, PLC/PRF/5, wash-out study), 5.4 nM; in data set [2] (read-out: inhibition of HGF-induced c-Met phosphorylation, average IC50, PLC/PRF/5, serum-free), 4.1 nM; in data set [3] (read-out: c-Met phosphorylation after wash-out, average IC50, wash-out study), 7.2 nM; in data set [3] (read-out: inhibition of HGF-induced c-Met phosphorylation, average IC50, serum-free), 5.6 nM; in [4] (10% (v/v) human serum) it was 19.1 nM. Moreover, the IC50 in data set [4] (10% (v/v) murine serum) was 14.7 nM; in the data set with PLC/PRF/5 cells [5] (read-out: cell viability IC50, MTT), 3400 nM; with HepG2 cells, 1200 nM; in the data set on HuH7 cells, 2000 nM; in the data set on Hep3B cells it was 4500 nM. In addition, the “inhibition of the other 241 human kinases” value with other 241 human kinases is listed as at most 50%. In data set [3], the “duration of c-Met phosphorylation inhibition after wash-out” value is “more than 20 hours”. The “interaction with sorafenib on cell viability (combination index)” value in the data set with PLC/PRF/5 cells [5] (DE605 0.5 and 1.0 μM with sorafenib, CI <1 = synergism) is reported as “synergistic effect”. Moreover, in data set [6], the “cytotoxicity in normal liver cells” value is reported as “a little lower cytotoxicity in HL-7702 cells than in HCC cells”. Besides, the cell-cycle arrest entry with PLC/PRF/5 cells [7] was “no appreciable cell-cycle arrest”. In the data set with PLC/PRF/5 cells [8], the sorafenib-induced nucleosome formation entry was “dramatically enhanced”. Further, in data set [9], the “level of phosphorylated-Erk (p-Erk)” value is given as “dramatically elevated”. The “mRNA level of FGFR3” value in data set [10] and in data set [11] was “up-regulated” throughout. Moreover, in [12], the “tumor growth inhibition (TGI)” value was found to be 37.3%.
